Laboratory results taken from ChEMBL document CHEMBL5352416, “Benzo[b]thiophene-2-carboxamides as novel opioid receptor agonists with potent analgesic effect and reduced constipation” (Eur J Med Chem, 2022).

System: Mus musculus
Experiment: Antinociceptive activity in thermal stimulated sc dosed C57BL/6 mouse measured at 30 to 180 mins by tail flick test
Type: functional
Details: time 30-180 min

For `CN1CC[C@]23c4c5ccc(O)c4O[C@H]2[C@@H](O)C=C[C@H]3[C@H]1C5`, the Activity was “Dose-Dependent Effect”.
